Measured values taken from US4395969A (priority 1981, dated 1983).

Columns and labels:
chinook salmon = assay: Static bioassay, lethal concentration to chinook salmon; conditions: 50 mg/l; 12 h; artesian well water; 10 C
threespine stickleback = assay: Static bioassay, lethal concentration to threespine stickleback; format: in vivo, Gasterosteus aculeatus; conditions: 50 mg/l; 12 h; artesian well water; 10 C

CCOP(=S)(Cl)OCC
mortality (chinook salmon): 0%
mortality (threespine stickleback): 100%
